Literature values in patent US20040122083A1, “Antitubulin assembly and cell growth inhibitor denominated "dioxostatin"” (priority 2003, published 2004).

The chains behind the UniProt entries cited, without tags or fusion partners.
UniProt P02550, whole entry: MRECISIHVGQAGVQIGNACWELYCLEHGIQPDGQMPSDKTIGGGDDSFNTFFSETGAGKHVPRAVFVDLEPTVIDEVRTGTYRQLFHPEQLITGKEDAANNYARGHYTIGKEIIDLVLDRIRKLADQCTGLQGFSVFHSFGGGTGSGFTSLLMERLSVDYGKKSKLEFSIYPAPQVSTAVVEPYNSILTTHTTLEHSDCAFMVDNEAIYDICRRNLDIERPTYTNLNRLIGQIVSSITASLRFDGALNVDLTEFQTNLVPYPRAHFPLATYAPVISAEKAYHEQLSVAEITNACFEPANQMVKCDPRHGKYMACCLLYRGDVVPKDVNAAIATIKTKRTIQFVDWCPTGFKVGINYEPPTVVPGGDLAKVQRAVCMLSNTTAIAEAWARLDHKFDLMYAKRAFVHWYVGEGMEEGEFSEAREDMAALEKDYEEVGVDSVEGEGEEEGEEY
UniProt P02554, whole entry: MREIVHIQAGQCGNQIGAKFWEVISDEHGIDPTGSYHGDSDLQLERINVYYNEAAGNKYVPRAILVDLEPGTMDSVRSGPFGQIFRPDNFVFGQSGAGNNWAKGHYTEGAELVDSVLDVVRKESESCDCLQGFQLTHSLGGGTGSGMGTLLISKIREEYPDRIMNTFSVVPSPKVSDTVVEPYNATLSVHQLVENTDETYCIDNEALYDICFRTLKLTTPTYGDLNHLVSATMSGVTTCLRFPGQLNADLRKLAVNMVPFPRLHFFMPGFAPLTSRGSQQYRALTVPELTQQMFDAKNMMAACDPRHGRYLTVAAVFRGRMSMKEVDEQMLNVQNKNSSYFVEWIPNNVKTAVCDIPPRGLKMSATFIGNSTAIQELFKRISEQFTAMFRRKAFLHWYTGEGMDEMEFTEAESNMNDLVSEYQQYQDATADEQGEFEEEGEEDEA

How the values were obtained:
porcine brain tubulin = porcine brain tubulin (Sus scrofa, UniProt P02550+P02554); details: read-out: inhibition of porcine brain tubulin polymerization IC50; Shirai and co-workers; cited from earlier work
PC-6 = details: cited from earlier work
[1] = test system: PC-12 (multidrug resistant); details: cited from earlier work

Structure (SMILES) | IC50 (porcine brain tubulin) [µM] | GI50, in vitro growth of PC-6 (PC-6) [ng/mL] | GI50, in vitro growth of PC-12 [1] [ng/mL]
COc1ccc([C@H]2OCO[C@@H]2c2cc(OC)c(OC)c(OC)c2)cc1O | > 50 |  | 
COc1ccc([C@@H]2OCO[C@H]2c2cc(OC)c(OC)c(OC)c2)cc1O |  | 2 | 2
